Results as given in patent US20260373119A1, “NOVEL COMPOUND, AND COMPOSITION FOR PREVENTING OR TREATING HER2-POSITIVE CANCER, COMPRISING SAME” (EWHA UNIVERSITY - INDUSTRY COLLABORATION FOUNDATION, priority 2022, published 2026).

Assays:
[1] = tested on: TZMB-sensitive cells; test: treatment of TZMB-sensitive cells; assay type: cell-based; settings: parent BT474 and NCI-N87
Protocol: (§1) The ability of the candidate compound to overcome trastuzumab resistance was evaluated. Specifically, compounds 1 through 22 were tested on JIMT-1 cells (ER-/PR-/HER2+ subtype with innate TZMB resistance), TZMB-refractory BT474 cells (BT-TR; ER+/PR+/HER2+ subtype with acquired resistance), and TZMB-refractory NCI-N87 cells (NCI-N87 TR; HER2+ subtype with acquired resistance).

[2] = tested on: TZMB-resistant cells; test: treatment of TZMB-resistant cells; assay type: cell-based; settings: BT474 TR, NCI-N87 TR, JIMT-1
Protocol: as §1

[3] = tested on: HER2 and downstream signaling (phosphorylated AKT and MAPK); test: HER2 expression and downstream signaling, TZMB-sensitive and -resistant cells; assay type: cell-based
Protocol: For western blot analysis, cells were seeded in a 6-well plate and lysed in 1×RIPA lysis buffer (Cell Signaling, USA) containing 1% 0.1 M [COMPOUND LEFT OUT] and 1% 100× protease inhibitor cocktail solution (Genedepot, USA). Total protein levels were standardized using the Pierce™ BCA Protein Assay Kit (Thermo Fisher Scientific, USA) and a microplate reader (Tecan Group Ltd., Switzerland). A total of 20 μg of protein was loaded onto a 10-15% SDS-PAGE acrylamide gel and transferred to a 0.2 μm PVDF membrane (Pall Life Science, USA). The membrane was blocked with 5% skim milk or 5% BSA, and the membrane was cultured with primary antibodies (purchased from Thermo Fisher, Cell Signaling, Santa Cruz, Novus, or MBL) at room temperature for 3 hours or overnight at 4 °C. The blot was washed three times with Tris-buffered saline containing 0.1% Tween20 (1×TBST) and incubated with an HRP-conjugated secondary antibody (GeneTex, USA). Protein bands were detected using ECL solution reagents (GE Healthcare, USA) and the LAS-3000 imaging system (Fuji Photo Film Co., Ltd., Japan), and captured images were analyzed using Multi-Gauge software (Fuji Photo Film Co. Ltd.). The preparation of cell lysates for subsequent analyses was performed using the same method as described for western blot analysis.
The ability of the candidate compound to overcome trastuzumab resistance was evaluated. […]

[4] = tested on: TZMB-resistant cells; test: clonal analysis; assay type: cell-based; settings: 14 days; TZMB 10 or 20 μg/mL, YK1 0.5 or 1 μM
Protocol: To validate the above results, clonal analysis was performed. Specifically, cells were seeded at a density of 2,000 cells/well in a 6-well culture plate, treated with either TZMB (10 or 20 μg/mL) or YK1 (0.5 or 1 μM), or left untreated, and incubated for 14 days. The incubated cells were fixed with 100% methanol for 1 hour and then stained with 200 μL of crystal violet solution per well. After washing the cells with tap water, images were captured using a ChemiDoc bio-image analyzer (Bio-Rad), and quantification was performed with ImageJ software (NIH, Bethesda, MD, USA). All processes following the fixation were conducted at room temperature.

[5] = JIMT-1 xenograft, body weight; assay type: in vivo, mice; settings: 4 mg/kg
Protocol: Xenograft mice were generated to evaluate the anticancer effects of the candidate compound. NCI-N87 and JIMT-1 cells (5×10^6 cells), dissolved in 100 μL of 1× phosphate-buffered saline (PBS), were subcutaneously injected into the right flanks of 5-week-old female athymic nude mice (Envigo, USA) or 4-week-old female NOD-SCID mice (Koatech, South Korea). When the tumors reached a volume of 90-100 mm^3, the mice were randomized into designated groups. For the NCI-N87 xenograft, intravenous administration was performed six times at 3-day intervals. For the JIMT-1 xenograft, intraperitoneal administration was performed eight times at 3-day intervals. The candidate compound (hereinafter, YK1) and trastuzumab (TZMB) were each prepared at a concentration of 4 mg/kg, mixed with a DMAC/Tween80/saline (5:10:85) ratio mixture and saline, respectively, and then administered. Tumor size changes were monitored until the mean tumor size in the control group reached 2,000-2,500 mm^3. On day 28 for the NCI-N87 xenograft and day 46 for the JIMT-1 xenograft, the mice were sacrificed, and tumors were excised to determine relative tumor sizes. Tumor length (L) and width (W) were measured with calipers, and tumor volume was calculated using the formula: […]
To assess resistance-avoidance effects in vivo, JIMT-1 xenograft mice were treated with 4 mg/kg of the candidate compound or TZMB.

TZMB: trastuzumab (TZMB), an antibody drug targeting the extracellular domain of the HER2 protein [reference compound]
anticancer effect in TZMB-sensitive cells [1]: effective only in TZMB-sensitive cells
anticancer effect in TZMB-resistant cells [2]: effective only in TZMB-sensitive cells
HER2 expression and downstream signaling [3]: did not induce such changes
effect against TZMB resistance in clonal analysis [4]: did not exhibit such effects
body weight [5]: remained generally consistent
